Assay: Stability of PAA in compositions and in presence of chelators (PAA test strips)
Method: A sanitizer composition containing 0.25% SLS, 0.05% LA, 0.125% magnesium sulfate, and 85 ppm PAA was prepared in the 300 ppm total hardness water described in Example 8. This solution was applied to a stainless steel cabinet (34.5 in.×72 in.) in the meat pilot plant with a FOAM-IT® 5 unit using the driest foam setting.
This Example illustrates the effect of chelating agent on sanitizer compositions. The amount of chelator added is intended to chelate a concentration of ions corresponding to 300 ppm hard water, which corresponds to 3 millimolar. Because water will often have a hardness of less than 300 ppm, leaving an excess of chelator, it is important to evaluate the stability of PAA with respect to the chelator. The excess chelator could cause increases in pH, which would decrease the amount of PAA present according to the reaction (Preparation, Properties, Reactions and Uses of Organic Peracids and their Salts, FMC Corporation, Inorganic Chemicals Division, New York, N.Y., 1964, p. 34):
Therefore, in anticipation of the worst case where soft water is used to prepare the solution from which the foam is generated, the stability of PAA in the presence of at least 3 millimolar of chelator was evaluated.
0.125 g of Na4EDTA and 0.170 g of 5% PAA were added to 100 g of DI water.
0.161 g of Na3EDTA and 0.170 g of 5% PAA were added to 100 g of DI water. […]

## sodium salts of ethylene diamine tetracetic acid
  stability of PAA in the presence of the chelator: rapidly decomposes
